Data: ChEMBL document CHEMBL4270635, “HDAC3 is a potential validated target for cancer: An overview on the benzamide-based selective HDAC3 inhibitors through comparative SAR/QSAR/QAAR approaches” (Eur J Med Chem, 2018)

Assays:
Homo sapiens [1] = organism: Homo sapiens; experiment: Selectivity ratio of IC50 for HDAC2 (unknown origin) to IC50 for HDAC3 (unknown origin)
Homo sapiens [2] = organism: Homo sapiens; experiment: Selectivity ratio of IC50 for HDAC1 (unknown origin) to IC50 for HDAC3 (unknown origin)

`Nc1ccccc1NC(=O)c1cnccn1` showed a Ratio IC50 (Homo sapiens [1]) of 7 and a Ratio IC50 (Homo sapiens [2]) of 7.
